## Binding of CDR-mutated scFvs to a peptide of the spike HR2 region

Antigen: PDVDLGDISGINAS, a 14-residue peptide of the SARS-CoV-2 spike HR2 region.

The variants keep the heavy chain, the linker and the frameworks of Ab-14 (scFv order VH, a 15-residue (Gly4Ser)3 linker, VL).
VH: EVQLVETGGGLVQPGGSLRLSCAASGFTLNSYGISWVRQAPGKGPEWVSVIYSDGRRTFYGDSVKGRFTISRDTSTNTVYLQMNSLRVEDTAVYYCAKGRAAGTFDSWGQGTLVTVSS
VL: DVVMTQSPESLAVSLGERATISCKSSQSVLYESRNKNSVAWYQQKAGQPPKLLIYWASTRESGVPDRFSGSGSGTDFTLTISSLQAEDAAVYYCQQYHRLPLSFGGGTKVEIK

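These sequences belong to a second round, designed from the earlier measurements on random variants of the parent. Their group label is 14L_Ctrl (Ctrl: baseline library sampled from a position-specific scoring matrix, with some repeated check sequences). The assay is AlphaSeq: two haploid yeast populations carry antibody and antigen on their surface. Binding brings cells together so that they mate, and sequencing counts the barcode pairs among the diploids. The ratio of observed to expected reads was calibrated, replicate by replicate, on BCL2-family standards whose Kd was known from biolayer interferometry. There are six technical replicates.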

Changes read parent residue, position, new residue, counted from the first residue of the VL shown. Numbers give log10(Kd / nM), so 0 is 1 nM and 3 is 1 µM. Smaller is tighter. Replicates are averaged; those with no signal do not enter the mean. An entry "n.d." has no value in the source: the pair was not observed among the diploids in that replicate. This suggests poor binding but is not conclusive. Values of this round are not directly comparable with the first-round values of the same sequences. As a blank, each scFv also met three strains without target: over all light chain designs, 4% of these pairings were detected, typically at 2.64 and seldom below 1.59. Also given: how often the same scFv was detected with the empty control strains, with their mean in brackets. The authors' rule: three or more of the six replicates give a measured affinity, fewer mean a poor binder. The parent sequence was in this pool as ten entries: three were never detected, three once, and four in most replicates, with averages from 0.34 to 2.37.

changes	replicates, log10 nM	mean log10 Kd (nM)	signal with controls
S28G/T59N	n.d. n.d. n.d. n.d. n.d. n.d.	n.d.	0/18
S25I/S28E/R34V/W56G/T59I/Q96N/L102S	0.73 0.87 0.79 0.83 0.40 1.06	0.78	1/18 (2.15)
S28H/V29D/L30S/W56D	-0.12 -0.26 -0.17 -0.52 -0.30 -0.18	-0.26	0/18
L30I/E32A/S62R	n.d. n.d. n.d. n.d. n.d. n.d.	n.d.	0/18
Q27I/K36P	n.d. n.d. n.d. n.d. n.d. n.d.	n.d.	1/18 (1.60)
S25A/V29Q/Y31M/R34E/V39I	1.62 2.43 1.84 3.10 2.18 n.d.	2.23	1/18 (1.87)
R34C/S62A	1.67 2.64 n.d. 1.49 n.d. n.d.	1.93	0/18
K24N/N35R/W56N	2.47 2.09 2.36 1.67 1.70 2.25	2.09	1/18 (2.81)
K36Q/W56K	0.82 0.98 0.77 0.74 0.04 n.d.	0.67	0/18
S26T	1.49 n.d. 2.02 n.d. n.d. n.d.	1.75	0/18
V29S/R60L	1.88 2.16 1.99 n.d. n.d. 1.93	1.99	0/18
Y31M/A40C	n.d. n.d. n.d. n.d. n.d. n.d.	n.d.	0/18
S25V/S26P/Y31D	0.79 0.76 0.53 0.70 0.67 0.74	0.70	2/18 (3.24)
E32D/S33L/R34F/E61M	n.d. 1.69 1.21 1.16 n.d. 1.47	1.38	0/18
Q27G/V39G/E61I/H98C	n.d. 2.92 1.43 2.47 1.02 1.61	1.89	1/18 (2.68)
R34S/N37H/W56D	0.15 0.03 -0.22 -0.19 -0.31 0.03	-0.09	2/18 (2.29)
L30P/S58T/H98Y/L102N	n.d. n.d. n.d. n.d. n.d. n.d.	n.d.	0/18
S26K/S33T/W56E/T59I	0.20 -0.23 -0.07 -0.19 -0.41 0.24	-0.08	0/18
S33D/W56S/Q95K/Y97K/H98Q/L102T	n.d. n.d. 2.26 2.28 n.d. n.d.	2.27	1/18 (2.19)
S28E/W56Y	n.d. n.d. 0.52 2.02 n.d. 0.72	1.09	0/18
R34S/N35M/S58D	2.25 1.77 1.10 1.44 1.39 1.47	1.57	2/18 (2.00)
S28K/Y31W/R34N/V39I/W56Y	1.80 2.97 n.d. n.d. 1.02 n.d.	1.93	0/18
S25C/R34S/N35E/L102E	n.d. n.d. n.d. n.d. n.d. n.d.	n.d.	1/18 (3.21)
Y31W/R34F/E61L	2.24 2.58 2.36 2.80 n.d. 2.90	2.58	1/18 (3.67)
S62Y	2.06 0.92 1.49 1.16 2.48 0.99	1.52	1/18 (2.75)
S25Y/Y31E/R99H	n.d. n.d. n.d. n.d. n.d. n.d.	n.d.	0/18
V29L/L30S/E32T/N37Q/W56E	0.67 0.46 0.52 0.57 0.51 0.41	0.53	1/18 (2.10)
S28P/N37D/Y97V	2.33 2.44 2.29 n.d. n.d. 2.35	2.35	0/18
S33E/L100T	n.d. n.d. n.d. n.d. n.d. n.d.	n.d.	1/18 (2.19)
S25Y/V29M/E61I	2.66 2.11 1.43 1.54 0.82 1.27	1.64	0/18
S26F/Q27E/Y31V/K36N/W56A	1.49 2.02 1.46 1.58 0.94 1.40	1.48	1/18 (1.54)
S26H	n.d. 2.01 n.d. 3.70 2.75 n.d.	2.82	0/18
R99I/L102V	n.d. 2.17 3.45 n.d. 2.78 2.18	2.65	0/18
S26D/Q27D/L30S/E32T/W56E/Q95M	0.32 -0.70 -0.71 -0.41 -0.55 -0.19	-0.37	0/18
S25V/K36E	n.d. n.d. -0.01 n.d. n.d. n.d.	-0.01	0/18
V29Q/Q96F	n.d. n.d. n.d. n.d. 2.04 n.d.	2.04	0/18
L30M/K36F	n.d. 2.60 n.d. n.d. 2.14 1.82	2.19	0/18
V39I/Q95A	n.d. 1.41 2.26 n.d. n.d. 2.77	2.14	1/18 (2.45)
E61F/S62R/H98S	1.57 n.d. n.d. n.d. n.d. n.d.	1.57	1/18 (2.65)
K24C/W56G/E61F/S103P	n.d. n.d. n.d. n.d. n.d. n.d.	n.d.	0/18
S28L/K36D/S38P/W56S/L100I	2.49 0.99 1.06 1.29 1.24 1.89	1.49	1/18 (3.65)
V29T/R34L/W56G/T59I/E61L	1.43 0.63 0.64 1.06 0.71 0.79	0.88	1/18 (2.86)
E32T/E61N	1.92 2.68 n.d. 2.50 3.44 n.d.	2.63	0/18
S25F/Y31M/T59I	0.54 0.55 0.64 0.62 0.65 1.20	0.70	1/18 (1.72)
S26I/Q27I/S62V/R99Q	n.d. n.d. n.d. n.d. n.d. n.d.	n.d.	0/18
W56G/R60H/S62C	1.40 0.82 0.90 2.70 0.92 2.03	1.46	0/18
K36V/W56A/T59K/S103F	0.51 0.83 0.82 0.67 0.53 0.62	0.66	0/18
V39L/W56S/S58N	1.47 0.99 1.12 0.84 0.71 1.45	1.10	1/18 (1.65)
S25W/E32D/N35W/K36H/W56A/T59Q	1.10 1.12 1.20 0.76 0.95 1.22	1.06	1/18 (2.32)
S25Y/L30E/Y31V/W56S/H98V/S103Y	-0.46 -0.29 -0.56 -0.44 -0.18 -0.33	-0.38	0/18

Picked from the list: the 5 lowest averages where every replicate gave a value.

changes	replicates, log10 nM	mean log10 Kd (nM)	signal with controls
S25Y/L30E/Y31V/W56S/H98V/S103Y	-0.46 -0.29 -0.56 -0.44 -0.18 -0.33	-0.38	0/18
S26D/Q27D/L30S/E32T/W56E/Q95M	0.32 -0.70 -0.71 -0.41 -0.55 -0.19	-0.37	0/18
S28H/V29D/L30S/W56D	-0.12 -0.26 -0.17 -0.52 -0.30 -0.18	-0.26	0/18
R34S/N37H/W56D	0.15 0.03 -0.22 -0.19 -0.31 0.03	-0.09	2/18 (2.29)
S26K/S33T/W56E/T59I	0.20 -0.23 -0.07 -0.19 -0.41 0.24	-0.08	0/18

Data: MIT Lincoln Laboratory AlphaSeq set, Li et al. 2023, doi:10.1038/s41467-023-39022-2, as distributed in FLAb.